# Data as given in US20090036365A1.
# Legend:
# [1] = target: Trypsin; assay: display phage binding to immobilised trypsin, 2 washes
# [2] = target: Trypsin; assay: display phage binding to immobilised protease
# [3] = target: Kallikrein; assay: display phage binding to immobilised protease
# [4] = target: Thrombin; assay: display phage binding to immobilised protease
# [5] = target: human plasmin (human) (UniProt P00747); assay: display phage binding to immobilised protease
Substance,relative binding (LACI-K1 phage = unit) (fold of LACI-K1 phage) [1],relative binding (LACI-K1 phage = unit) (fold of LACI-K1 phage) [2],relative binding (LACI-K1 phage = unit) (fold of LACI-K1 phage) [3],relative binding (LACI-K1 phage = unit) (fold of LACI-K1 phage) [4],relative binding (LACI-K1 phage = unit) (fold of LACI-K1 phage) [5]
Bovine Pancreatic Trypsin Inhibitor (BPTI) (from UniProt P00974 36-93),0.8,0.3,1.7,1.1,
Bovine Pancreatic Trypsin Inhibitor (BPTI) (from UniProt P00974 36-93) (other; other documents disagree on this pair),,,,,88
